Data taken from patent US20130210899A1, “Method and Therapeutic for the Treatment and Regulation of Memory Formation” (The Regents of the University of California, priority 2010, published 2013).

Target: T1, HDAC3 (Mus musculus, UniProt O88895)
T1 construct: from tissue; host or cells: dorsal hippocampus of C57BL/6 mice
T1 sequence (O88895 1-428): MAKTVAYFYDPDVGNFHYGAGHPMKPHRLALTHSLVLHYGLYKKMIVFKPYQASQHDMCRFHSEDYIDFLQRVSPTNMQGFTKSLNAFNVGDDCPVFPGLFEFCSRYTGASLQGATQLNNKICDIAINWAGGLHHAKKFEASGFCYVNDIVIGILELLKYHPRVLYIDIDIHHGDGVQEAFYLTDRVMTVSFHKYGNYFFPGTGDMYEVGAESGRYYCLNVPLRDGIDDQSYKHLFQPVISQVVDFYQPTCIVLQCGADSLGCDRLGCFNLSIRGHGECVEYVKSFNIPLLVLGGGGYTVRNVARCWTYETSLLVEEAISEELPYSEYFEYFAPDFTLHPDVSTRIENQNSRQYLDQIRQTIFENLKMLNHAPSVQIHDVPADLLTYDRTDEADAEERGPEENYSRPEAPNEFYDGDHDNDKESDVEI
Experiment: Immunohistochemistry of dorsal hippocampus 2 hours after intrahippocampal infusion
Type: in vivo, C57BL/6 mice
Conditions: 1.25 ng/side intrahippocampal infusion
Procedure: Two weeks after mice were infused with AAV-Cre or two hours after hippocampal infusion of the inhibitor, mice were anesthetized deeply with sodium pentobarbital (100 mg/kg, i.p.) and perfused transcardially with ice-cold PBS, pH 7.4, followed by ice-cold 4% paraformaldehyde in PBS, pH 7.4, using a peristaltic perfusion pump (Fisher Scientific). The brains were removed, postfixed overnight at 4° C., and then transferred to 30% sucrose for 48 hr at 4° C. Brains were frozen and cryocut to 20 μm coronal slices, and sections were stored in 0.1M PBS. Floating sections were rinsed in 0.1% Triton X-100 (Fisher Scientific) in PBS, rinsed in PBS, and then blocked for 1 hr at room temperature in 8% normal goat serum (NGS, Jackson ImmunoResearch Laboratories) with 0.3% Triton X-100 in PBS. Sections were rinsed in PBS and for single labeling they were incubated overnight at 4° C. in 2% NGS, 0.3% Triton X-100 in PBS with primary antibody. The sections were then rinsed in PBS and incubated for 2 hr at room temperature with goat anti-rabbit IgG-FITC secondary antibody (1:1000, Millipore Bioscience International). […]
Images were acquired and using an Olympus (BX51, Japan) microscope using a 4× or 20× objective, CCD camera (QImaging), and QCapture Pro 6.0 software (QImaging) and quantified with ImageJ software (NIH). […]

With `Cc1ccc(C(=O)NCCCCCC(=O)Nc2ccc(F)cc2N)cc1` [RGFP136, N-(6-(2-amino-4-fluorophenylamino)-6-oxohexyl)-4-methylbenzamide] the “HDAC3 nuclear immunoreactivity vs vehicle” value was “similar”.
